Data from publication PMC2582960, “A Structural Model of the Staphylococcus aureus ClfA–Fibrinogen Interaction Opens New Avenues for the Design of Anti-Staphylococcal Therapeutics” (PLoS Pathogens, 2008).

Chains of the proteins cited; added tags and fusions are not shown. Lines headed by an entry give the natural chain unless they say otherwise; changes in a name come on top. A line that says so, or that is headed by a name, gives the form on record, which may keep a tag or linker.
UniProt P02671, other isoform, or with tags, fused parts or gaps, chain 1 of 3: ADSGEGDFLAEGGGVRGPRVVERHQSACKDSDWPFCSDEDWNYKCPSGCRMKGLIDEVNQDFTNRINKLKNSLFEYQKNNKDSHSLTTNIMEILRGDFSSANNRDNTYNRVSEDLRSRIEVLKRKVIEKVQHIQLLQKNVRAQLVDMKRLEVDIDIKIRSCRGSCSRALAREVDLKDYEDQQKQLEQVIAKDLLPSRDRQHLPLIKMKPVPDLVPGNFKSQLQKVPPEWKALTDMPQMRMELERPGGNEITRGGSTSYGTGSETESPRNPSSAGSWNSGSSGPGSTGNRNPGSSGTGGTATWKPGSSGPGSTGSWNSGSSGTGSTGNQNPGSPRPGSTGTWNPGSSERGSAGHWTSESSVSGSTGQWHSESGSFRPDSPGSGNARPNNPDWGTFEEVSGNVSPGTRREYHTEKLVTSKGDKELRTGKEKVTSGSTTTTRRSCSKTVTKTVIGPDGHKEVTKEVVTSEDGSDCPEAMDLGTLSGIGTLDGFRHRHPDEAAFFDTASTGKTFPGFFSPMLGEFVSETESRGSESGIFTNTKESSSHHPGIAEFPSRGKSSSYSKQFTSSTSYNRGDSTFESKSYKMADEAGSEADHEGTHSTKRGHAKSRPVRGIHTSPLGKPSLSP
UniProt Q53653: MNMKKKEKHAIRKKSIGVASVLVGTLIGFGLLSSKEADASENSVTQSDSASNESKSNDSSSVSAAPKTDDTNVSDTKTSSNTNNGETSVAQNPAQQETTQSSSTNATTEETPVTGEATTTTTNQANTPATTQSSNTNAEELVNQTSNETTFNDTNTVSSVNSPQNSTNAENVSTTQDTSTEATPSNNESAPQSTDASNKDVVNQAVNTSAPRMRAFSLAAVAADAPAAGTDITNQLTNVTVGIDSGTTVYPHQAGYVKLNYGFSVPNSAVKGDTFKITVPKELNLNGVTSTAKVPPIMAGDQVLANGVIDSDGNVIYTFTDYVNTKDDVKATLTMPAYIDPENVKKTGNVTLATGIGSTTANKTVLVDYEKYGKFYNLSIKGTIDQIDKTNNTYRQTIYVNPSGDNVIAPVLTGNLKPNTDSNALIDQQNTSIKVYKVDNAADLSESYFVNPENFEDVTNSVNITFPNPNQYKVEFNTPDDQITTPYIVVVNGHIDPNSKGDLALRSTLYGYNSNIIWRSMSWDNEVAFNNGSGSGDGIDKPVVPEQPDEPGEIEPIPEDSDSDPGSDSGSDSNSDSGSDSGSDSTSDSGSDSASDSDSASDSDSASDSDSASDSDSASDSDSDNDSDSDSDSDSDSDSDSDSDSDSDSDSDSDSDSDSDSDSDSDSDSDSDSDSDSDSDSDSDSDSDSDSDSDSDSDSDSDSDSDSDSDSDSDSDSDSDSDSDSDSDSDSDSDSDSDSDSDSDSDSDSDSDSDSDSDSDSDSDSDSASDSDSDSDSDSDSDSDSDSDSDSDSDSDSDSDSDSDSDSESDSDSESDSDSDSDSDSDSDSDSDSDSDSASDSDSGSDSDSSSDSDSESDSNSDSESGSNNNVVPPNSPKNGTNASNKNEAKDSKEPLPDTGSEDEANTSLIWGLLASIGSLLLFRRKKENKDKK

Target: human fibrinogen (Fg), full length (human) (UniProt P02671)
Assay: ELISA; human Fg or GST fusion protein coated (1 µg/well); His-tagged ClfA added in increasing concentrations in HBS (10 mM HEPES, 100 mM NaCl, 3 mM EDTA, pH 7.4), 25°C, 1 h; bound ClfA detected with anti-His antibodies; apparent Kd

ClfA_(229–545) (clumping factor A, N2N3 domains) (from UniProt Q53653 229-545) (domain or fragment)
Kd: 305 nM
